Measurements published in PMC12511262 (European Journal of Clinical Pharmacology, 2025).

Conditions: steady state
[1] = observed plasma concentrations, all samples

DV Drug concentration at time t, Mean [1]: 129.08
DV Drug concentration at time t, Median [1]: 135.00
Mean concentration at predose (plasma, predose, mean (SD)): 82 (41) ng/mL
SMILES: CC(C)(C)c1cc(NC(=O)Nc2ccc(-c3cn4c(n3)sc3cc(OCCN5CCOCC5)ccc34)cc2)no1 [quizartinib]
